pEC50: −log10 of the molar value.
Key:
[1] = target: T1, HDAC6 (Homo sapiens, UniProt Q9UBN7); assay: chemoproteomic competition assay (MV4-11/SW620 lysate, iA/iC/iQ beads, MS readout); format: binding
T1 construct: incubated at increasing concentrations with a mixture of lysates of MV4–11 and SW620 cells; endogenous in cells; host or cells: mixed lysate of MV4-11 and SW620 cells
T1 sequence (Q9UBN7 1-1215): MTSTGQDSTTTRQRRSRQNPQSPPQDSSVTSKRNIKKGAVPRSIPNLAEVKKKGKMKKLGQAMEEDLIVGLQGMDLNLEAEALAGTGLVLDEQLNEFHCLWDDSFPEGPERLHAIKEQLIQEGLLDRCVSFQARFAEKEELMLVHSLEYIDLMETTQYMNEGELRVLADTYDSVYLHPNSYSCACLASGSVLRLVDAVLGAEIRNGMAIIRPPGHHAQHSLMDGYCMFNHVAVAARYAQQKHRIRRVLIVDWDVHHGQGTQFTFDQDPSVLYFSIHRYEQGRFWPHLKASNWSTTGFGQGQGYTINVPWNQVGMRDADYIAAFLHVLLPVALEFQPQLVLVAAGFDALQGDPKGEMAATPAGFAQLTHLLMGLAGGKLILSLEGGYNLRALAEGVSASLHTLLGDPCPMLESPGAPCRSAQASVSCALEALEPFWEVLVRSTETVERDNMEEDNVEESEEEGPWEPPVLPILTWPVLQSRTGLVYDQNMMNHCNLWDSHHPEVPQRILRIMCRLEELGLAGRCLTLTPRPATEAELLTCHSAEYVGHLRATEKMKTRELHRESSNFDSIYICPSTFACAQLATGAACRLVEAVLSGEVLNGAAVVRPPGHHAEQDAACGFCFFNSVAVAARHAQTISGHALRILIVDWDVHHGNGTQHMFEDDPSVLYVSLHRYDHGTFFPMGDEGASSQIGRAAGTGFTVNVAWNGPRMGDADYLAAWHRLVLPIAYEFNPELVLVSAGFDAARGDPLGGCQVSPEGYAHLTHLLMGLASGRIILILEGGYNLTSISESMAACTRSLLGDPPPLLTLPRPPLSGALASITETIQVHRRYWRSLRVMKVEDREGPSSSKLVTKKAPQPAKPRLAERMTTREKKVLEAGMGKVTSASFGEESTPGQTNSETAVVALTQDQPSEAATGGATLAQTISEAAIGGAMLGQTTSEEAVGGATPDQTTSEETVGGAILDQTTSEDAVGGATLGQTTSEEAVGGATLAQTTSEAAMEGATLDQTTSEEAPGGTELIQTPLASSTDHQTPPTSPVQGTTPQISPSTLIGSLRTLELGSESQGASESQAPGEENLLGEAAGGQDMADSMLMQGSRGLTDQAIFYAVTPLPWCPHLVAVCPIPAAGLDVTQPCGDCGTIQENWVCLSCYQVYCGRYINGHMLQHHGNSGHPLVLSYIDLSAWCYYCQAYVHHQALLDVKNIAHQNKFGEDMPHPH
Experimental: MBLAC2 is a metalloenzyme predicted to harbor one or two Zn^2+ ions in its active site. […] In this assay, compounds of interest are incubated at increasing concentrations with a mixture of lysates of MV4–11 and SW620 cells. The compound-treated lysates are then mixed with bead-immobilized hydroxamic acid-containing compounds iA, iC, and iQ (immobilized Quisinostat), which pull down compound-binding proteins such as HDACs, MBLAC2, ISOC1/2, ALDH2, and GATD3A (Figure a) that can be identified and quantified by mass spectrometry (MS). Proteins targeted by the library compounds in a preincubation step are prevented from being pulled down by the immobilized probes, leading to a dose-dependent reduction in MS signal. […]
(§1) Chemoproteomic competition assays
(§2) Sample preparation. […]
(§3) LC-MS/MS. The different sample types were measured with different LC-MS/MS settings. MBLAC2 2-dose competition assays were measured with the Lumos1 setup, MBLAC2 9-dose competition assays were measured with the Lumos2 setup, and kinobeads assays were measured with the Eclipse setup.
(§4) Peptides were analyzed via LC–MS/MS on a Dionex Ultimate3000 nano HPLC coupled to either one of two Orbitrap Fusion Lumos mass spectrometers, or to an Orbitrap Eclipse mass spectrometer, operated via the Thermo Scientific Xcalibur software. […]

[2] = target: T2, MBLAC2 (Homo sapiens, UniProt Q68D91); assay: as above; format: binding
T2 construct: incubated at increasing concentrations with a mixture of lysates of MV4–11 and SW620 cells; endogenous in cells; host or cells: mixed lysate of MV4-11 and SW620 cells
T2 sequence (Q68D91 1-279): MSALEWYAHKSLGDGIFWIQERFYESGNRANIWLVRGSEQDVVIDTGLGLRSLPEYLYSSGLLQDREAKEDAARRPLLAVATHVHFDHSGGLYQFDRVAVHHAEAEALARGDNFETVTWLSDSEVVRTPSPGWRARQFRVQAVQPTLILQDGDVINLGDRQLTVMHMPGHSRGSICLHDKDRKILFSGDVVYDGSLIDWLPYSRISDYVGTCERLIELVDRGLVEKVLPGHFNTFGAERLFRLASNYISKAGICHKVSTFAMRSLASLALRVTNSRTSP
Experimental: MBLAC2 is a metalloenzyme predicted to harbor one or two Zn^2+ ions in its active site. […] In this assay, compounds of interest are incubated at increasing concentrations with a mixture of lysates of MV4–11 and SW620 cells. The compound-treated lysates are then mixed with bead-immobilized hydroxamic acid-containing compounds iA, iC, and iQ (immobilized Quisinostat), which pull down compound-binding proteins such as HDACs, MBLAC2, ISOC1/2, ALDH2, and GATD3A (Figure a) that can be identified and quantified by mass spectrometry (MS). Proteins targeted by the library compounds in a preincubation step are prevented from being pulled down by the immobilized probes, leading to a dose-dependent reduction in MS signal. Initially, 12 metal-chelating compounds were profiled at two concentrations (10 μM and 100 μM) (Figure S3).
as §1, §2, §3, §4

O=C(NO)c1ccc(CN2c3ccccc3S(=O)(=O)c3ccccc32)cc1 [KV-65]
pEC50 [1]: 5.62
selectivity compared to HDACs ([2]; abstract): over 60 fold
selectivity over HDAC6 (EC50 HDAC6/EC50 MBLAC2) ([2]; from EC50 values): 64 fold
